scFv variants of Ab-95 (light chain) against a SARS-CoV-2 spike peptide

Values reported by Engelhart et al. 2022, doi:10.1038/s41597-022-01779-4 (FLAb copy).

The target is the same throughout: PDVDLGDISGINAS, from the HR2 region of SARS-CoV-2 spike.

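Phage display of a naive human antibody library on the peptide gave the parent. Variants in AAYL52 differ from the parent at up to three CDR positions; double and triple changes were sampled at random. Affinity was read by AlphaSeq, a pooled yeast mating assay with surface-displayed partners. Mating (16 h, 30 °C) was followed by selection of diploids and sequencing of their barcodes. A regression on co-assayed BCL2-family reference pairs converts the normalised counts of each replicate to an apparent Kd. Mating was done three times.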

Each scFv is VH, three GGGGS repeats, VL, as in the parent Ab-95, and differs from it in the CDRs of the light chain only.
VH: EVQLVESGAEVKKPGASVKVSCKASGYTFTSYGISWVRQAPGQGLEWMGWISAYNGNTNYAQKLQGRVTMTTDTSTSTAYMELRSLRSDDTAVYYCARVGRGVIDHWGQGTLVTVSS
VL: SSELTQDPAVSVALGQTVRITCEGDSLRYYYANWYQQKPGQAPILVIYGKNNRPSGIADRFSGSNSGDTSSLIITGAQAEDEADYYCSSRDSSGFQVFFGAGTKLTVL

Each variant is given by its three light chain CDRs, as the data file delimits them; those of the parent are EGDSLRYYYAN, GKNNRPS, SSRDSSGFQVF. Scale: log10 of Kd in nM, estimated from mating counts; low values are strong binders. A mean of the replicates is given; it leaves out those without a signal. A pair that was not seen in that replicate is written "nd"; this usually means weak binding, but a binder can also be missed.

With EGDVLRYYYAN | GKNNCPS | SSRDSSWFQVF the result was nd, nd, nd (controls 0 of 9).
With EGDSLHYYYAN | GKNNRPS | SSRDSSGFQIF the result was 3.36, nd, 2.53 (mean 2.95; controls 4 of 9).
With EGDSLRYYYAN | GKNNCPS | SSRDSSGFQVF the result was 2.90, 4.37, nd (mean 3.64; controls 3 of 9).
With EGDSNRYYYAN | GKNNRPS | SSLDSSSFQVF the result was 3.94, 5.28, 3.35 (mean 4.19; controls 1 of 9).
With EGFSLRHYYAN | GKNNRPS | SSRDSSTFQVF the result was 2.73, 1.94, 2.39 (mean 2.35; controls 4 of 9).
With EFCSLWYYYAN | GKNNRPS | SSRDSSGFQVF the result was 3.77, nd, nd (controls 0 of 9).
With EGDSTRYYYAN | KKNNRPS | SSRDGSGFQVF the result was 4.29, nd, 4.19 (mean 4.24; controls 2 of 9).
With EVDSLRYYYAN | GKWNRKS | SSRDSSGFQVF the result was nd, nd, 3.58 (controls 2 of 9).
With EGDSLCYYYAN | YKNNRPS | SSRDSSYFQVF the result was 3.66, nd, 3.86 (mean 3.76; controls 6 of 9).
With EGDSLIYYYAN | AKNNRPS | SSRDSSGFGVF the result was 3.48, nd, nd (controls 3 of 9).
With EGMSLCYYYAN | GKNNRPS | SSRWSSGFQVF the result was 3.33, 4.05, 3.89 (mean 3.76; controls 1 of 9).
With EGCSLAYYYAN | GKNNRPS | SSRDSSGFQVK the result was 3.52, nd, nd (controls 2 of 9).
With EGDSLRYYYAN | GKNNAPS | SMRDSSGAQVF the result was nd, nd, 3.65 (controls 2 of 9).
With EGDSLDYYYAN | GKNNRPS | SSNLSSGFQVF the result was 2.67, 3.06, 2.60 (mean 2.78; controls 0 of 9).
With ERDQLRYYYPN | GKNNRPS | SSRDSSGFQVF the result was 2.80, nd, 2.71 (mean 2.75; controls 4 of 9).
With EGDSLRYYYAN | GKNNRPS | SERSSSGFQVF the result was 3.34, 5.41, 4.13 (mean 4.29; controls 5 of 9).
With EGDSLRYYLAN | GKNNRPS | SSRDSSKFQVG the result was 4.91, 4.36, nd (mean 4.63; controls 4 of 9).
With EGDSLRYYYAN | RENYRPS | SSRDSSGFQVF the result was nd, nd, nd (controls 1 of 9).
With EGDSLRFYYAN | GKNNRPS | SSRDSSGFGTF the result was 3.65, 5.32, 4.06 (mean 4.34; controls 4 of 9).
With EGHSLRYYYAN | GKNNRPS | SSRDSSAFQVF the result was 3.36, 2.98, 4.18 (mean 3.50; controls 7 of 9).
With EGDVLIYYYAN | GKNMRPS | SSRDSSGFQVF the result was 4.23, nd, nd (controls 0 of 9).
With EGDSLRYYYAN | GCNNRSS | SSRASSGFQVF the result was 4.08, 2.86, 3.99 (mean 3.64; controls 2 of 9).
With EGDSLRYYVAN | GKNNRPS | SSRDSSGFQVF the result was 1.72, 1.47, 1.14 (mean 1.44; controls 5 of 9).
With EGDSMRYYYAN | IKNKRPS | SSRDSSGFQVF the result was 3.86, nd, 3.58 (mean 3.72; controls 4 of 9).
With EGDSLRYFYAN | GKNNRPS | SSRDSSGGQVQ the result was 2.57, 2.30, 2.23 (mean 2.37; controls 6 of 9).
With EGDSERYYGAN | GKNNRPS | SSRDSSGFQVL the result was 2.63, 3.38, 3.29 (mean 3.10; controls 4 of 9).
With EGDSYRYYYPN | GKNNRPS | SSRDYSGFQVF the result was 4.49, 4.31, 3.51 (mean 4.10; controls 2 of 9).
With EGDSLGYYYAN | GKNNRPS | SSRDSSGGQVF the result was 2.34, 2.21, 2.02 (mean 2.19; controls 4 of 9).
With EGDSLHTYYAN | GKNNRPS | SSRDSSGFQGF the result was 3.23, 2.24, nd (mean 2.73; controls 1 of 9).
With EHDSLRYYYAN | GKNNRPE | SSRDSSGFQNF the result was 2.74, 2.40, 2.78 (mean 2.64; controls 4 of 9).
With EGDSLREYYAN | GKNNRPS | SSRDSSGFWGF the result was 2.82, 2.63, 1.91 (mean 2.45; controls 1 of 9).
With EGMSLRYYYAN | GKNNRPS | SSRDSQGFQVF the result was 2.54, 2.72, 3.19 (mean 2.82; controls 2 of 9).
With EGDSLRYGYAN | GANNRPS | SSRDSSGFQVD the result was 2.51, nd, nd (controls 1 of 9).
With EGDSLRYYYAN | GKNNRPS | SSRDSCGFNWF the result was 3.74, 2.51, 4.10 (mean 3.45; controls 3 of 9).
With EGDSLRYKYAN | GKDNVPS | SSRDSSGFQVF the result was 2.01, 1.91, 1.63 (mean 1.85; controls 3 of 9).
With EGDSLRYYYVN | GKNNRPS | SMRDSSGFQVF the result was 3.59, 3.71, 4.04 (mean 3.78; controls 5 of 9).
With EGDSLRYYYAN | GKNNRPS | SSRDSRQFQHF the result was nd, nd, 3.44 (controls 1 of 9).
With EGDSLRYYYAN | GKNNRCS | SSRDSSGLHVF the result was 2.70, 3.48, 3.80 (mean 3.32; controls 4 of 9).
With EGDSLRYYYAN | GKVNMMS | SSRDSSGFQVF the result was nd, nd, nd (controls 0 of 9).
With RGDSLRYYYAN | GKNNRPS | SSRDSSGFQVF the result was 1.98, 1.87, 1.34 (mean 1.73; controls 5 of 9).

The first 3 entries again:

CDR-L1,CDR-L2,CDR-L3,"log10 Kd, replicates","log10 Kd (nM), mean",empty controls
EGDVLRYYYAN,GKNNCPS,SSRDSSWFQVF,"nd, nd, nd",nd,0 of 9
EGDSLHYYYAN,GKNNRPS,SSRDSSGFQIF,"3.36, nd, 2.53",2.95,4 of 9
EGDSLRYYYAN,GKNNCPS,SSRDSSGFQVF,"2.90, 4.37, nd",3.64,3 of 9

Nonspecific signal, from three strains lacking the peptide, appeared in 28% of pairings of library AAYL52, centred on 3.91 (5% of these signals below 2.90); values are not corrected for it. For each scFv, signals with the empty controls are counted beside the result.